From patent publication US20190030018A1 (Celgene Corporation, priority 2017, published 2019)
Counter-ions that a name gives are not always drawn.

Assays:
Assay in all cases: In vitro combination studies, CellTitre-Glo cell viability
OCT-AML-3 = system: OCT-AML-3
OCI-AML-2 = system: OCI-AML-2
KG-1 = system: KG-1
ML-2 = system: ML-2
MV-4-11 = system: MV-4-11
HL-60 = system: HL-60
MOLM-13 = system: MOLM-13
F-36-P = system: F-36-P
NOMO-1 = system: NOMO-1
HNT-34 = system: HNT-34

Row | Compound | Synergy analysis for combinations with Compound 1 (OCT-AML-3) | Synergy analysis for combinations with Compound 1 (OCI-AML-2) | Synergy analysis for combinations with Compound 1 (KG-1) | Synergy analysis for combinations with Compound 1 (ML-2) | Synergy analysis for combinations with Compound 1 (MV-4-11) | Synergy analysis for combinations with Compound 1 (HL-60) | Synergy analysis for combinations with Compound 1 (MOLM-13) | Synergy analysis for combinations with Compound 1 (F-36-P) | Synergy analysis for combinations with Compound 1 (NOMO-1) | Synergy analysis for combinations with Compound 1 (HNT-34)
1 | Sc1ncnc2nc[nH]c12 [Compound 6-Mercaptopurine, 6-Mercaptopurine] | No | No | No | No | No | No | Yes |  |  | 
2 | Nc1nc2nc[nH]c2c(=S)[nH]1 [Thioguanine] |  |  | No | No |  | No |  | No | No | 
3 | CN(Cc1cnc2nc(N)nc(N)c2n1)c1ccc(C(=O)N[C@@H](CCC(=O)O)C(=O)O)cc1 [Methotrexate] |  |  |  |  |  |  |  |  | No | 
4 | CC(=O)[C@]1(O)Cc2c(O)c3c(c(O)c2[C@@H](O[C@H]2C[C@H](N)[C@H](O)[C@H](C)O2)C1)C(=O)c1ccccc1C3=O [Idarubicin HCl] |  | No | No |  |  |  |  | No | No | 
5 | CC(C)C[C@H](NC(=O)[C@H](Cc1ccccc1)NC(=O)c1cnccn1)B(O)O [Bortezomib] | No | No |  | No | No |  |  |  |  | 
6 | CC[C@@]1(O)C(=O)OCc2c1cc1n(c2=O)Cc2cc3c(CN(C)C)c(O)ccc3nc2-1 [Topotecan] |  |  | No | No |  | No |  |  |  | 
7 | Nc1nc(Cl)nc2c1ncn2[C@H]1C[C@H](O)[C@@H](CO)O1 [Cladribine] |  | No |  | No |  |  | Yes |  | No | 
8 | COc1cccc2c1C(=O)c1c(O)c3c(c(O)c1C2=O)C[C@@](O)(C(C)=O)C[C@@H]3O[C@H]1C[C@H](N)[C@H](O)[C@H](C)O1 [Daunorubicin] | No | No |  |  | No | No |  | No |  | No
9 | Nc1nc(Cl)nc2c1ncn2[C@@H]1O[C@H](CO)[C@@H](O)[C@@H]1F [Clofarabine] |  |  | No | No | Yes |  |  | No |  | 
